Data on one molecule can be found in paper PMC3786144 (Biochimica et biophysica acta, 2013).

One assay relates to Id1. As to the kind of experiment: Id1 mRNA expression by qPCR in NIH3T3 cells. As to conditions: serum-starved NIH3T3, 20 ng/ml BMP2 vs 20% serum. Type of assay: cell-based, mouse.
A further assay deals with phospho-Smad1/5/8. The assay can be described thus: Phospho-Smad1/5/8 immunoblot in NIH3T3 cells. Type of assay: cell-based, mouse. The following applies: starved NIH3T3, 20 ng/ml BMP2 for 1 hour. (In general: In western blotting, separated proteins are transferred to a membrane and probed.)

B1: BMP2: recombinant human BMP2 (Sino Biological Inc.) (protein, UniProt P12643 283-396, looked up)
Bone morphogenetic protein 2: QAKHKQRKRLKSSCKRHPLYVDFSDVGWNDWIVAPPGYHAFYCHGECPFPLADHLNSTNHAIVQTLVNSVNSKIPKACCVPTELSAISMLYLDENEKVVLKNYQDMVVEGCGCR
In the case of B1, the “induction of Id1 expression compared with serum” value with Id1 is recorded as “about twice as strongly as serum”. Also, the “phosphorylation of Smad1/5/8” value in the assay on phospho-Smad1/5/8 was “induced the phosphorylation”.
